The results in this text go back to patent publication US20200068890A1 (Person to Whom the Inventor is Obligated to Assign, priority 2017, published 2020).

In this experiment the test system is Gram-positive and Gram-negative bacterial species. Briefly: Broth microdilution MIC, panel summary. In kind it is cell-based. The following applies: read-out: MIC values. Here is the method:
To determine whether DHDPS inhibitors were plant-specific, compounds 1, 3 and 5 were selected and tested against a panel of Gram-positive and Gram-negative bacteria.
Assays were carried out by a broth microdilution method using a 96-well plate according to guidelines defined by the European Committee on Antimicrobial Susceptibility Testing as described here. Overnight cultures of strains were grown in tryptic soy broth (TSB) at 37° C. The overnight cultures were diluted to a concentration of 1×10^6 bacteria/ml (OD600=0.01) in TSB media. To each well on 96 well plates, 100 μl of bacterially infected media at a concentration of 1×10^6/ml and compounds at various concentrations were added. An uninfected control (i.e. no bacteria) was also included. The plates were incubated at 37° C. wrapped in parafilm for 20 hrs. The growth was assessed by measuring the absorbance at 600 nm. The minimum inhibitory concentration (MIC) was determined to be the lowest concentration of compound that inhibits visible bacterial growth.
For orientation: In broth dilution the organism is exposed to a series of concentrations in liquid medium.

Each structure is given as a SMILES string. Some results are limits rather than exact numbers.

For the compound `COc1ccc(/C=C2\SC(=O)N(CC(=O)O)C2=O)cc1` [Compound 5, (Z)-2-(5-(4-Methoxybenzylidene)-2,4-dioxothiazolidin-3-yl)acetic Acid], the MIC (commonly the lowest concentration that inhibits growth of the organism) is > 64 µg/mL.
